Assay [1] addresses cellular tyrosinase in B16F10 cells (Mus musculus, UniProt P11344).
Assay [2] relates to tyrosinase expression in B16F10 cells.
Assay [3] concerns the target T1, Mushroom tyrosinase (EC 1.14.18.1) (Agaricus bisporus, UniProt C7FF04).
T1 construct: purchased Sigma-Aldrich
Put plainly: Mushroom tyrosinase inhibition assay (L-tyrosine or L-DOPA as substrate). The assay is classed as biochemical. The conditions noted are these: mean ± SEM of triplicate. As to the method: In order to evaluate the inhibitory effects of synthesized furan chalcone derivatives on the enzyme activity, tested compounds were subjected to a mushroom tyrosinase inhibition assay with monophenolase (L-tyrosine) or diphenolase (L-3,4-dihydroxyphenyl-alanine; L-DOPA) as the substrates.
Mushroom tyrosinase inhibition was determined following our previously reported methods. All experiments were done in triplicate. […] The measurement was completed in triplicate for each concentration and averaged. The IC50 values were determined by interpolation of the dose-inhibition % curves.

By UniProt entry, the sequences of proteins in these tests, tags left out. Residues count along the entry.
UniProt P11344, 19-533: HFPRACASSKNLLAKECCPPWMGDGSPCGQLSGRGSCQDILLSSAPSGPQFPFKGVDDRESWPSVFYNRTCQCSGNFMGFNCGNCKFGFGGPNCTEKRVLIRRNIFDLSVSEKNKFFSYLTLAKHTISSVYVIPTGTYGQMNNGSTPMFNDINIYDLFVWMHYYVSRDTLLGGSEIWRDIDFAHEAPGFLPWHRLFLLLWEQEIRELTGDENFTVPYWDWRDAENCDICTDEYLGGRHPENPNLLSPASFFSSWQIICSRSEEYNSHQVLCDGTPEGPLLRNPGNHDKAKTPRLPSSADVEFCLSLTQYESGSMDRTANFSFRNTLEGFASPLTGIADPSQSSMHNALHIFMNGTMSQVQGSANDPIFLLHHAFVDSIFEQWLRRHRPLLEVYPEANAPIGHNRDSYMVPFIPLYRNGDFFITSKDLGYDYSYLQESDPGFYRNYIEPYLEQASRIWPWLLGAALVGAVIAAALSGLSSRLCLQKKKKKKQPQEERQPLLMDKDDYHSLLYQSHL
UniProt C7FF04, 1-392: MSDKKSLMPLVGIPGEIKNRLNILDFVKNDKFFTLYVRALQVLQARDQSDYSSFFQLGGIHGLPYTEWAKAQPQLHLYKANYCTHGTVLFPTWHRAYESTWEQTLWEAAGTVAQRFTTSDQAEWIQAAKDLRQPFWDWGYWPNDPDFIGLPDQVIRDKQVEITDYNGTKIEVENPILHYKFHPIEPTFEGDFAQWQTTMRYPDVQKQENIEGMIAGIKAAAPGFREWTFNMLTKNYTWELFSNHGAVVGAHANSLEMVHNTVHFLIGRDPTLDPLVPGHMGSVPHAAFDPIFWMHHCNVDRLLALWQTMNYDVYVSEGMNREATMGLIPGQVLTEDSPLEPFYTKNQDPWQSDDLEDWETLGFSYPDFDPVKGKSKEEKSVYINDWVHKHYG

Regarding `O=C(/C=C/c1ccc(O)cc1O)c1ccco1` [Compound 8, (E)-3-(2,4-Dihydroxyphenyl)-1-(furan-2-yl)prop-2-en-1-one], the cellular tyrosinase activity result in assay [1] is on record as “decreased”. For the same compound, in the assay on B16F10 cells, the extracellular melanin content result is on record as “decreased” and the intracellular melanin content entry was “decreased”. Further, the “expression of tyrosinase (protein level)” value in assay [2] is reported as “decreased”. Moreover, in assay [3] (IC50 (μM) a, L-tyrosine as substrate (monophenolase)), the IC50 was found to be 0.0433 ± 0.0016 µM. This compound also yielded an IC50 in assay [3] (IC50 (μM) b, L-DOPA as substrate (diphenolase)) of 0.28 ± 0.01 µM.
